In general, IC50 refers to the concentration needed to halve the response being measured. A low value points to higher potency.

Protein sequences, listed by entry. Tags and fused reporters are not part of them.
UniProt P35222, whole entry: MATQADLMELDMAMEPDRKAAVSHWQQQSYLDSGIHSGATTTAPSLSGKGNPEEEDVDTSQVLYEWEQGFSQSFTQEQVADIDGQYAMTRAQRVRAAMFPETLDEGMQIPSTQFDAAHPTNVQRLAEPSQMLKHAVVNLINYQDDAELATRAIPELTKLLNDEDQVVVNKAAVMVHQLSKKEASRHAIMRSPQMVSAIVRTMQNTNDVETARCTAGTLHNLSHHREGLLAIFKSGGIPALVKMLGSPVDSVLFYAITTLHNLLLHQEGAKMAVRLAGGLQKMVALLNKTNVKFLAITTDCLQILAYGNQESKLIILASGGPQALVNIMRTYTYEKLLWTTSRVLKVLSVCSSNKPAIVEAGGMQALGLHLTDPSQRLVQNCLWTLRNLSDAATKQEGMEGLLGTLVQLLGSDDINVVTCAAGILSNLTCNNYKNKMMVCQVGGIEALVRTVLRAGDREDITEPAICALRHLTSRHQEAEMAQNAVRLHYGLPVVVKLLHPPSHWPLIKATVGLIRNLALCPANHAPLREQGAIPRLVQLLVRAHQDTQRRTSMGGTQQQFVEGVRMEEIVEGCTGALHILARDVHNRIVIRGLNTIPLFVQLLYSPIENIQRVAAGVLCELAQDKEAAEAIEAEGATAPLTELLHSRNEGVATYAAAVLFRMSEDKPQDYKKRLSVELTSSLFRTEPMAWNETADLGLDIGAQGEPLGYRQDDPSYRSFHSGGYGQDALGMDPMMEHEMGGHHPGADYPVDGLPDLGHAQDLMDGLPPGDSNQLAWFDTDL

IC50 data for 14 compounds are collected here from US20240360179A1, “STAPLED PEPTIDES AND METHODS THEREOF” (FOG PHARMACEUTICALS, INC., priority 2021, published 2024).

The target in one assay is T1, full-length B-Catenin (Uniprot ID P35222) (Homo sapiens, UniProt P35222).
T1 construct: 10 nM full-length B-Catenin (Uniprot ID P35222)
Description: biochemical. Conditions: beta-Catenin FP IC50 (nM), competition fluorescence polarization. Type of assay: binding. (Polarisation of emitted light reports the rotation of a fluorescent probe.)
The compound `CC(=O)N1CCC[C@]12CC=CCCCC1(CCCC=CCCCOC(=O)N3CC[C@@]4(C3)NC(=O)[C@H](CCCCNC(=O)CC[C@@H](C(=O)N[C@@H](C)C(N)=O)NC(=O)[C@H](Cc3csc5ccccc35)NC(=O)[C@H](Cc3ccsc3)NC4=O)NC(=O)[C@H]([C@@H](c3ccccc3)C(C)C)NC(=O)[C@H](C)NC(=O)C(C)(C)NC(=O)[C@H](Cc3cccc(C(=O)O)c3)NC(=O)[C@H](CC(=O)O)NC1=O)NC(=O)[C@H](CC(C)(C)C)NC(=O)[C@H](CC(=O)O)NC2=O` (single isomer, unassigned) [I-594, Ac-PL3-Asp-Npg-B5-Asp-3COOHF-Aib-Ala-RbiPrF-Lys*3-PyrS2-3Thi-BztA-GlnR*3-Ala-NH2] registered an IC50 of more than 1000 nM.
The same measure, in the same setting: the value for `CC(=O)N1CCC[C@]12CC=CCCCC1(CCCC=CCCCOC(=O)N3CC[C@@]4(C3)NC(=O)[C@H](CCCCNC(=O)CC[C@@H](C(=O)N[C@@H](C)C(N)=O)NC(=O)[C@H](Cc3csc5ccccc35)NC(=O)[C@H](Cc3ccsc3)NC4=O)NC(=O)[C@H]([C@H](c3ccccc3)C(C)C)NC(=O)[C@H](C)NC(=O)C(C)(C)NC(=O)[C@H](Cc3cccc(C(=O)O)c3)NC(=O)[C@H](CC(=O)O)NC1=O)NC(=O)[C@H](CC(C)(C)C)NC(=O)[C@H](CC(=O)O)NC2=O` (single isomer, unassigned) [I-596, Ac-PL3-Asp-Npg-B5-Asp-3COOHF-Aib-Ala-SbiPrF-Lys*3-PyrS2-3Thi-BztA-GlnR*3-Ala-NH2] was more than 1000 nM.
The same measure, in the same setting: then `CC(=O)N1CCC[C@]12CC=CCCCC1(CCCC=CCCCOC(=O)N3CC[C@@]4(C3)NC(=O)[C@H](CCCCNC(=O)CC[C@@H](C(=O)N[C@@H](C)C(N)=O)NC(=O)[C@H](Cc3csc5ccccc35)NC(=O)[C@H](Cc3ccsc3)NC4=O)NC(=O)[C@@H]([C@@H](c3ccccc3)C(C)C)NC(=O)[C@H](C)NC(=O)C(C)(C)NC(=O)[C@H](Cc3cccc(C(=O)O)c3)NC(=O)[C@H](CC(=O)O)NC1=O)NC(=O)[C@H](CC(C)(C)C)NC(=O)[C@H](CC(=O)O)NC2=O` (single isomer, unassigned) [I-598, Ac-PL3-Asp-Npg-B5-Asp-3COOHF-Aib-Ala-RbiPrDF-Lys*3-PyrS2-3Thi-BztA-GlnR*3-Ala-NH2], with more than 1000 nM; and `CC(=O)N1CCC[C@]12CC=CCCCC1(CCCC=CCCCOC(=O)N3CC[C@@]4(C3)NC(=O)[C@H](CCCCNC(=O)CC[C@@H](C(=O)N[C@@H](C)C(N)=O)NC(=O)[C@H](Cc3csc5ccccc35)NC(=O)[C@H](Cc3ccsc3)NC4=O)NC(=O)[C@H]([C@H](C)c3c(C)cccc3C)NC(=O)[C@H](C)NC(=O)C(C)(C)NC(=O)[C@H](Cc3cccc(C(=O)O)c3)NC(=O)[C@H](CC(=O)O)NC1=O)NC(=O)[C@H](CC(C)(C)C)NC(=O)[C@H](CC(=O)O)NC2=O` (single isomer, unassigned) [I-600, Ac-PL3-Asp-Npg-B5-Asp-3COOHF-Aib-Ala-RbMeXylA-Lys*3-PyrS2-3Thi-BztA-GlnR*3-Ala-NH2], with more than 1000 nM; and `CC(=O)N1CCC[C@]12CC=CCCCC1(CCCC=CCCCOC(=O)N3CC[C@@]4(C3)NC(=O)[C@H](CCCCNC(=O)CC[C@@H](C(=O)N[C@@H](C)C(N)=O)NC(=O)[C@H](Cc3csc5ccccc35)NC(=O)[C@H](Cc3ccsc3)NC4=O)NC(=O)[C@@H]([C@H](C)c3c(C)cccc3C)NC(=O)[C@H](C)NC(=O)C(C)(C)NC(=O)[C@H](Cc3cccc(C(=O)O)c3)NC(=O)[C@H](CC(=O)O)NC1=O)NC(=O)[C@H](CC(C)(C)C)NC(=O)[C@H](CC(=O)O)NC2=O` (single isomer, unassigned) [I-602, Ac-PL3-Asp-Npg-B5-Asp-3COOHF-Aib-Ala-RbMeXylDA-Lys*3-PyrS2-3Thi-BztA-GlnR*3-Ala-NH2], with more than 1000 nM.
Same read-out and setting: then `CC(=O)N1CCC[C@]12CC=CCCCC1(CCCC=CCCCOC(=O)N3CC[C@@](C(=O)N[C@@H](Cc4ccsc4)C(=O)N[C@@H](Cc4csc5ccccc45)C(=O)N[C@@H](CCC(N)=O)C(N)=O)(C3)NC(=O)[C@@H]3CCCCn4cc(nn4)C[C@H](NC(=O)[C@H](CC(=O)O)NC(=O)[C@H](CC(=O)O)NC1=O)C(=O)N[C@@H](C)C(=O)N[C@@H](Cc1ccccc1)C(=O)N3)NC(=O)[C@H](CC(C)(C)C)NC(=O)[C@H](CC(=O)O)NC2=O` (stereo partly drawn) [I-26, Ac-PL3-Asp-Npg-B5-Asp-Asp-sAla*3-Ala-Phe-TriAzLys*3-PyrS2-3Thi-BztA-Gln-NH2], with 750 to 1000 nM; and `CC(=O)N1CCC[C@]12CC=CCCCC1(CCCC=CCCCOC(=O)N3CC[C@@](C(=O)N[C@@H](Cc4ccsc4)C(=O)N[C@@H](Cc4csc5ccccc45)C(=O)N[C@@H](CCC(N)=O)C(N)=O)(C3)NC(=O)[C@@H]3CCCCn4cc(nn4)C[C@H](NC(=O)[C@H](Cc4cccc(C(=O)O)c4)NC(=O)[C@H](CC(=O)O)NC1=O)C(=O)N[C@@H](C)C(=O)N[C@@H](Cc1ccccc1)C(=O)N3)NC(=O)[C@H](CC(C)(C)C)NC(=O)[C@H](CC(=O)O)NC2=O` (stereo partly drawn) [I-27, Ac-PL3-Asp-Npg-B5-Asp-3COOHF-sAla*3-Ala-Phe-TriAzLys*3-PyrS2-3Thi-BztA-Gln-NH2], with 200 to 750 nM.
Compound `CC(=O)N1CCC[C@]12CC=CCCCC1(CCCC=CCCCOC(=O)N3CC[C@@](C(=O)N[C@@H](Cc4ccccc4C(F)(F)F)C(=O)N[C@@H](Cc4csc5ccccc45)C(=O)N[C@@H](CCC(N)=O)C(N)=O)(C3)NC(=O)[C@@H]3CCCCn4cc(nn4)C[C@H](NC(=O)[C@H](Cc4cccc(C(=O)O)c4)NC(=O)[C@H](CC(=O)O)NC1=O)C(=O)N[C@@H](C)C(=O)N[C@@H](Cc1ccccc1)C(=O)N3)NC(=O)[C@H](CC(C)(C)C)NC(=O)[C@H](CC(=O)O)NC2=O` (stereo partly drawn) [I-28, Ac-PL3-Asp-Npg-B5-Asp-3COOHF-sAla*3-Ala-Phe-TriAzLys*3-PyrS2-2F3MeF-BztA-Gln-NH2] had an IC50 of 750 to 1000 nM.

A further assay addresses beta-catenin/TCF4 interaction (Homo sapiens, UniProt P35222). Nature of the assay: cell-based. To be noted: NanoBRET Abs IC50 (uM). Also on record: host or cells: HEK293. A general note: BRET reads energy transfer from a luciferase to a nearby fluorophore.
For the compound `CC(=O)N1CCC[C@]12CC=CCCCC1(CCCC=CCCCOC(=O)N3CC[C@@]4(C3)NC(=O)[C@H](CCCCNC(=O)CC[C@@H](C(N)=O)NC(=O)[C@H](Cc3csc5ccccc35)NC(=O)[C@H](Cc3ccsc3)NC4=O)NC(=O)[C@H](Cc3ccccc3)NC(=O)[C@H](C)NC(=O)[C@H](C)NC(=O)[C@H](CC(=O)O)NC(=O)[C@H](CC(=O)O)NC1=O)NC(=O)[C@H](CC(C)C)NC(=O)[C@H](CC(=O)O)NC2=O` (single isomer, unassigned) [I-4, Ac-PL3-Asp-Leu-B5-Asp-Asp-Ala-Ala-Phe-Lys*3-PyrS2-3Thi-BztA-GlnR*3-NH2], the IC50 was more than 10 µM.
Same read-out and setting: the value for `CC(=O)N1CCC[C@]12CC=CCCCC1(CCCC=CCCCOC(=O)N3CC[C@@]4(C3)NC(=O)[C@@H](CCCCNC(=O)CC[C@@H](C(N)=O)NC(=O)[C@H](Cc3csc5ccccc35)NC(=O)[C@H](Cc3ccsc3)NC4=O)NC(=O)[C@H](Cc3ccccc3)NC(=O)[C@H](C)NC(=O)[C@H](C)NC(=O)[C@H](Cc3cccc(C(=O)O)c3)NC(=O)[C@H](CC(=O)O)NC1=O)NC(=O)[C@H](CC(C)C)NC(=O)[C@H](CC(=O)O)NC2=O` (single isomer, unassigned) [I-10, Ac-PL3-Asp-Leu-B5-Asp-3COOHF-Ala-Ala-Phe-dLys*3-PyrS2-3Thi-BztA-GlnR*3-NH2] was more than 10 µM; that for `CC(=O)N1CCC[C@]12CC=CCCCC1(CCCC=CCCCOC(=O)N3CC[C@@]4(C3)NC(=O)[C@H](CCCCNC(=O)CC[C@@H](C(N)=O)NC(=O)[C@H](Cc3csc5ccccc35)NC(=O)[C@H](Cc3ccsc3)NC4=O)NC(=O)[C@H](Cc3ccccc3)NC(=O)[C@H](C)NC(=O)[C@H](C)NC(=O)[C@H](Cc3cccc(C(=O)O)c3)NC(=O)[C@H](CC(=O)O)NC1=O)NC(=O)[C@H](CC(C)C)NC(=O)[C@H](CC(=O)O)NC2=O` (single isomer, unassigned) [I-12, Ac-PL3-Asp-Leu-B5-Asp-3COOHF-Ala-Ala-Phe-Lys*3-PyrS2-3Thi-BztA-GlnR*3-NH2] was 3 to 10 µM; that for `CC(=O)N1CCC[C@]12CC=CCCCC1(CCCC=CCCCOC(=O)N3CC[C@@]4(C3)NC(=O)[C@H](CCC(=O)NCCCC[C@@H](C(N)=O)NC(=O)[C@H](Cc3csc5ccccc35)NC(=O)[C@H](Cc3ccsc3)NC4=O)NC(=O)[C@H](Cc3ccccc3)NC(=O)[C@H](C)NC(=O)[C@H](C)NC(=O)[C@H](Cc3cccc(C(=O)O)c3)NC(=O)[C@H](CC(=O)O)NC1=O)NC(=O)[C@H](CC(C)C)NC(=O)[C@H](CC(=O)O)NC2=O` (single isomer, unassigned) [I-16, Ac-PL3-Asp-Leu-B5-Asp-3COOHF-Ala-Ala-Phe-GlnR*3-PyrS2-3Thi-BztA-Lys*3-NH2] was 3 to 10 µM.
Still for that read-out and setting: the value for `CC(=O)N1CCC[C@]12CC=CCCCC1(CCCC=CCCCOC(=O)N3CC[C@@]4(C3)NC(=O)[C@H](CCCCNC(=O)CC[C@@H](C(=O)N[C@@H](C)C(N)=O)NC(=O)[C@H](Cc3csc5ccccc35)NC(=O)[C@H](Cc3ccccc3C(F)(F)F)NC4=O)NC(=O)[C@H](Cc3ccccc3)NC(=O)[C@H](C)NC(=O)C(C)(C)NC(=O)[C@H](Cc3cccc(C(=O)O)c3)NC(=O)[C@H](CC(=O)O)NC1=O)NC(=O)[C@H](CC(C)(C)C)NC(=O)[C@H](CC(=O)O)NC2=O` (single isomer, unassigned) [I-69, Ac-PL3-Asp-Npg-B5-Asp-3COOHF-Aib-Ala-Phe-Lys*3-PyrS2-2F3MeF-BztA-GlnR*3-Ala-NH2] was less than 1.5 µM; that for `CC(=O)N1CCC[C@]12CC=CCCCC1(CCCC=CCCCOC(=O)N3CC[C@@]4(C3)NC(=O)[C@H](CCCCNC(=O)CC[C@@H](C(=O)N[C@@H](C)C(N)=O)NC(=O)[C@H](Cc3csc5ccccc35)NC(=O)[C@H](Cc3ccccc3C(F)(F)F)NC4=O)NC(=O)[C@H](Cc3ccccc3)NC(=O)[C@H](C)NC(=O)[C@H](C)NC(=O)[C@H](Cc3cccc(C(=O)O)c3)NC(=O)[C@H](CC(=O)O)NC1=O)NC(=O)[C@H](CC1CCCCC1)NC(=O)[C@H](CC(=O)O)NC2=O` (single isomer, unassigned) [I-98, Ac-PL3-Asp-Cha-B5-Asp-3COOHF-Ala-Ala-Phe-Lys*3-PyrS2-2F3MeF-BztA-GlnR*3-Ala-NH2] was 3 to 10 µM.
